Reference: publication PMC9599717, “The Multicellular Effects of VDAC1 N-Terminal-Derived Peptide” (Biomolecules, 2022)
pKd: −log10 of the molar value.

Biological target: voltage-dependent anion channel 1 (VDAC1), purified, fluorescently labeled (UniProt P21796)
Experiment: MST; fluorescently labeled VDAC1 (138 nM) incubated with actin (10–500 nM) or tubulin (20–2000 nM); 10 mM Tricine pH 7.4, 100 mM NaCl; incubation 20 min (methods) or 30 min at 37 °C (legend, actin); NanoTemper Monolith-NT115

pKd: 7.52
Substance: actin purified from rabbit muscle (G-actin) (from UniProt P68135 1-377) (natural protein; other documents disagree on this pair)
